According to ChEMBL document CHEMBL1143625, “Bisphosphonate inhibitors of Toxoplasma gondi growth: in vitro, QSAR, and in vivo investigations” (J Med Chem, 2005):

Assay: Therapeutic index (TI) value as ratio of lethal dose (LD50) to the inhibitory concentration (IC50)
Assay type: cell-based
Settings: human, kb

NCCCC(O)(P(=O)(O)O)P(=O)(O)O [ALENDRONIC ACID]
TI: 1.33
